This passage reports Kb results from ChEMBL document CHEMBL4229332, “Novel multi-target azinesulfonamides of cyclic amine derivatives as potential antipsychotics with pro-social and pro-cognitive effects” (Eur J Med Chem, 2018).

The chains behind the UniProt entries cited, without tags or fusion partners. Where a name states a change or a piece, a line headed by the entry shows the natural chain unless it says otherwise.
UniProt P28335: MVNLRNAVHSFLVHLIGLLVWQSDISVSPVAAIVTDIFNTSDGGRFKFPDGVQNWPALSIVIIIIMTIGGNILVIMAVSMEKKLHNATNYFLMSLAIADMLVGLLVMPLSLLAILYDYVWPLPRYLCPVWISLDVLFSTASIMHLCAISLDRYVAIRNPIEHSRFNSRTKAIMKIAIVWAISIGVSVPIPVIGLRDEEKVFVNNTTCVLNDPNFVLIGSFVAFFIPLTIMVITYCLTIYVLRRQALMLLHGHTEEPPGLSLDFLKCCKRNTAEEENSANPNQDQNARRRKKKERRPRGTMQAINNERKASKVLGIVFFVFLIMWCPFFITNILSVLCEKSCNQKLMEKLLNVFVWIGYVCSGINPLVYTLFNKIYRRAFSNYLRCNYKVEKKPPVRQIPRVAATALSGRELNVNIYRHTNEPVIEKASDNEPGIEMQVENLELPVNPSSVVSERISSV

This test concerns the target 5-hydroxytryptamine receptor 2C (Homo sapiens) (UniProt P28335). The test is described as follows: Antagonist activity at human 5-HT2CR expressed in HEK293 cells assessed as inhibition of serotonin-induced IP1 accumulation after 30 mins by HTRF method. The test is classed as functional, cell-based. For orientation: In TR-FRET formats the signal depends on donor and acceptor labels being close together.

As a reminder, the Kb is the affinity of an antagonist, worked out from how it opposes an agonist. Take `Cn1ccc2cc3c(cc21)CCN3C(=O)Nc1cccnc1`: the Kb worked out at 2.3 nM.
